Values of other authors in US8278267B2 (Amylin Pharmaceuticals, LLC, priority 2005, dated 2012).

Key:
[1] = e.g., provoking marked hyperlactemia followed by hyperglycemia; cited from earlier work
[2] = cited from earlier work

## CC[C@H](C)[C@H](NC(=O)[C@@H]1CCCN1C(=O)CNC(=O)[C@H](Cc1ccccc1)NC(=O)[C@H](CC(N)=O)NC(=O)[C@H](CC(N)=O)NC(=O)[C@H](CO)NC(=O)[C@H](CO)NC(=O)[C@H](Cc1c[nH]cn1)NC(=O)[C@@H](NC(=O)[C@H](CC(C)C)NC(=O)[C@H](Cc1ccccc1)NC(=O)[C@H](CC(N)=O)NC(=O)[C@H](C)NC(=O)[C@H](CC(C)C)NC(=O)[C@H](CCCNC(=N)N)NC(=O)[C@H](CCC(N)=O)NC(=O)[C@@H](NC(=O)[C@H](C)NC(=O)[C@@H]1CSSC[C@H](NC(=O)[C@@H](N)CCCCN)C(=O)N[C@@H](CC(N)=O)C(=O)N[C@@H]([C@@H](C)O)C(=O)N[C@@H](C)C(=O)N[C@@H]([C@@H](C)O)C(=O)N1)[C@@H](C)O)C(C)C)C(=O)N[C@@H](CC(C)C)C(=O)N1CCC[C@H]1C(=O)N1CCC[C@H]1C(=O)N[C@H](C(=O)N[C@@H](CC(N)=O)C(=O)N[C@H](C(=O)NCC(=O)N[C@@H](CO)C(=O)N[C@@H](CC(N)=O)C(=O)N[C@H](C(=O)N[C@@H](Cc1ccc(O)cc1)C(N)=O)[C@@H](C)O)C(C)C)[C@@H](C)O [Pramlintide, ^25,28,29Pro-h-amylin]
[1]
  amylin activity in vivo: show amylin activity in vivo
[2]
  solubility and stability characteristics compared to human amylin: more desirable solubility and stability characteristics
